In the assay the target is HLA-A*0202 (human). Put plainly: competitive inhibition assay, purified HLA. The note with it: remark: other sources report otherwise.

HLYQGCQVV [Her2/neu.48] displayed an IC50 of 307 nM.

Source of the values: US20030224036A1, “Hla class I a2 tumor associated antigen peptides and vaccine compositions” (priority 1999, published 2003).
